The text below walks through data of ChEMBL document CHEMBL1129278, “Binding of arylpiperazines, (aryloxy)propanolamines, and tetrahydropyridylindoles to the 5-HT1A receptor: contribution of the molecular lipophilicity potential to three-dimensional quantitative structure-affinity relationship models” (J Med Chem, 1996).

Sequences of proteins named here, by UniProt entry; tags and fusion partners are left off.
UniProt P19327, whole entry: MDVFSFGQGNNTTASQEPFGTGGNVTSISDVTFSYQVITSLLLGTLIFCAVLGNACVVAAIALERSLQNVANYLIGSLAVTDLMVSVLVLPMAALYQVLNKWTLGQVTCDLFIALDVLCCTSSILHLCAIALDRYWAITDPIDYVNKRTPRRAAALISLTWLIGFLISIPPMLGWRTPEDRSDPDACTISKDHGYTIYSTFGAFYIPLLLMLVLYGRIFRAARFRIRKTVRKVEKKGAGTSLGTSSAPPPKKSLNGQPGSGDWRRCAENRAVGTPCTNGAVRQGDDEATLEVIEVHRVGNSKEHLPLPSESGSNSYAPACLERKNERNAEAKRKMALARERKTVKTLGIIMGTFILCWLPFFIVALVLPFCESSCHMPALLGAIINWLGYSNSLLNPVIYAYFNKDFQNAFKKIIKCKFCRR

Each structure is given as a SMILES string. pKi: −log10 of the molar value.

In this assay the target is 5-hydroxytryptamine receptor 1A (Rattus norvegicus, UniProt P19327).

Broadly, the pKi is the Ki on a negative log10 scale, so that one unit is a factor of ten. Low readings indicate a large Ki, high ones a small Ki. Consider `NCCc1c[nH]c2ccc(O)cc12` [SEROTONIN], for which the pKi is 8.32.
